US11427556B2, “Urea derivatives as inhibitors of ASK1” (Hepagene Therapeutics (HK) Limited, priority 2017, dated 2022)

By UniProt entry, the sequences of proteins in these tests, tags left out.
UniProt Q99683, whole entry: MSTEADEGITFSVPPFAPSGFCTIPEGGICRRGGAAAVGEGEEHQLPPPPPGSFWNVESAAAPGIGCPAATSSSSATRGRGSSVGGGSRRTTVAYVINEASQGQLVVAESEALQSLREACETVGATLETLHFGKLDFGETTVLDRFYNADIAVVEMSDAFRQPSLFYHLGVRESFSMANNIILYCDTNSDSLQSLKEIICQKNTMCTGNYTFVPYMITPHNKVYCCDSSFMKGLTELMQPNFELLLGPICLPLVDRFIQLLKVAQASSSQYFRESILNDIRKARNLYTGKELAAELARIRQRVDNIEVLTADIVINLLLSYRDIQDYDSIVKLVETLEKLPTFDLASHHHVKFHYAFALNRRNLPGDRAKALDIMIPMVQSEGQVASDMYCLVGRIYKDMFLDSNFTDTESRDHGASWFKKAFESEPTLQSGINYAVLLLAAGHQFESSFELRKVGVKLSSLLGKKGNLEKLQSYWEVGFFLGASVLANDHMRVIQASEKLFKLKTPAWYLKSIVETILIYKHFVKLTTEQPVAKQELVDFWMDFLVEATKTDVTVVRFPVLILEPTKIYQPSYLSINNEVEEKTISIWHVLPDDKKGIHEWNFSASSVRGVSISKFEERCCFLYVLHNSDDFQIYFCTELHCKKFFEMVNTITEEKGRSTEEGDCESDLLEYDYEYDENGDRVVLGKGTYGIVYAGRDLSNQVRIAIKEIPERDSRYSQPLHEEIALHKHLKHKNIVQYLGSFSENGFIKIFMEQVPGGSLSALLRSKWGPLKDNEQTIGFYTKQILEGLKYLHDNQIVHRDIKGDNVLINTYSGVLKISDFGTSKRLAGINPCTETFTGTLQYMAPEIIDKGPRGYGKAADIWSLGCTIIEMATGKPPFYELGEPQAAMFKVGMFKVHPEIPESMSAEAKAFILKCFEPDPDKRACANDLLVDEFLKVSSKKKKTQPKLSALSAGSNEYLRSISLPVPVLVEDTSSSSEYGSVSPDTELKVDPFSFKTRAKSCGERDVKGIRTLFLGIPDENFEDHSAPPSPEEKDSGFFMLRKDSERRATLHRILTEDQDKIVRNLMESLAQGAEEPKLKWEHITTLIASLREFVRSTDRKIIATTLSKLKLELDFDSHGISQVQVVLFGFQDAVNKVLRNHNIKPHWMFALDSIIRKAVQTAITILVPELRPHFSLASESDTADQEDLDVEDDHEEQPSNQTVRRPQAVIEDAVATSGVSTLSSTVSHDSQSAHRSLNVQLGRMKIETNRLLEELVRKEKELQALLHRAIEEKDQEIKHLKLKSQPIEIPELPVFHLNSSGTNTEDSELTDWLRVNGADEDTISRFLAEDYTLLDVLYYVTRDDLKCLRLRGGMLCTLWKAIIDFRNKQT

Molecular target: Recombinant human ASK1 kinase (Homo sapiens, UniProt Q99683)
Assay: ASK1 kinase HTRF assay (HTRF KinEASE-STK, phosphorylation of biotinylated peptide substrate)
Conditions: 3 nM ASK1 kinase, 1 uM STK-substrate-biotin, HTRF detection

EC50 [nM]	SMILES
< 50	CC(C)n1cnnc1-c1cccc(NC(=O)Nc2cc(C(F)(F)F)ccn2)n1
< 50	CC(C)n1cnnc1-c1cccc(NC(=O)Nc2ccc(S(C)(=O)=O)cn2)n1

SMILES	EC50 [nM]
CC(C)n1cnnc1-c1cccc(NC(=O)Nc2nc3ccccc3s2)n1	< 50
